# Measurements taken from PMC5823845 (Bioorganic & Medicinal Chemistry, 2018).
# Amino acid sequences for entries named in this document (tags omitted). Residues count along the entry.
# UniProt P11416, 183-417 limits assumed: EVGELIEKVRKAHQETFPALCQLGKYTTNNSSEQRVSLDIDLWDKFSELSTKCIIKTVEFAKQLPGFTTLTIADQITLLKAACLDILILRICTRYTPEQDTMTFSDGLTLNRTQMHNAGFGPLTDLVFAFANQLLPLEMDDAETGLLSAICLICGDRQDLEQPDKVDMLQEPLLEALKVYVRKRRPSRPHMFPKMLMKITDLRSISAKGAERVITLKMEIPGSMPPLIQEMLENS
# UniProt P18911, 185-419 limits assumed: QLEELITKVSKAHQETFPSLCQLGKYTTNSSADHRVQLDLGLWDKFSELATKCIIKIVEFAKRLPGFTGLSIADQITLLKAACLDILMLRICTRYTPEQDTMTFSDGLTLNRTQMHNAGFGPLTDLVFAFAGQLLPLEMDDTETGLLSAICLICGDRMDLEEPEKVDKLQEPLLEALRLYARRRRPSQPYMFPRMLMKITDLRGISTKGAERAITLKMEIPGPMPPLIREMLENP
# UniProt P22605, 210-444 limits assumed: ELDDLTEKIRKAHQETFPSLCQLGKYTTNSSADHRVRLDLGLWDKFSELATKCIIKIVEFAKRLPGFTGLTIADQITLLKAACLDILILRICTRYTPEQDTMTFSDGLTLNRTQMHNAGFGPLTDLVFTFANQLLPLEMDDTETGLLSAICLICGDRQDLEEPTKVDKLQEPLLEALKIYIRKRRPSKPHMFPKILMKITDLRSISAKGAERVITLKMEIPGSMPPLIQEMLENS
# Key:
# [1] = target: T1, biotinylated RARα ligand binding domain (Mus musculus, UniProt P11416); experiment: FlashPlate Scintillation Proximity Binding Assay, [3H]-retinoic acid competition
# T1 construct: made in house; host or cells: E. coli JM109
# mouse RAR alpha receptor = mouse RAR alpha receptor (Mus musculus, UniProt P11416)
# mouse RAR gamma receptor = mouse RAR gamma receptor (Mus musculus, UniProt P18911); conditions: for γ/α ratio: mouse, ratio of relative EC50s RARγ/RARα
# mouse RAR beta receptor = mouse RAR beta receptor (Mus musculus, UniProt P22605); conditions: for β/α ratio: mouse, ratio of relative EC50s RARβ/RARα
# human RAR beta = conditions: human receptors
# human RAR gamma = conditions: human receptors
SMILES,LE (mouse RAR alpha receptor),β/α ratio (mouse RAR beta receptor),γ/α ratio (mouse RAR gamma receptor),further results
"CC1=C(/C=C/C(C)=C/C=C/C(C)=C/C(=O)O)C(C)(C)CCC1 [ATRA, all-trans-retinoic acid, reference compound]",,,,"IC50 [1]: 600 pM; EC50 (mouse RAR alpha receptor; read-out: Mean of ATRA EC50, RARα): 1510 pM; EC50 (mouse RAR gamma receptor; read-out: Mean of ATRA EC50, RARγ): 220 pM"
"CCOc1c(Cl)cc(C(=O)Nc2ccc(C(=O)O)cc2)cc1Cl [Compound 5, 4-(3,5-dichloro-4-ethoxybenzamido)benzoic acid]",0.45,,,
"O=C(O)c1ccc(NC(=O)c2cc(Cl)c(OC3CCCC3)c(Cl)c2)cc1 [Compound 15, 4-(3,5-Dichloro-4-(cyclopentyloxy)benzamido)benzoic acid]",0.41,33,452,Selectivity β/α ratio mouse (mouse RAR beta receptor): 33-fold; Selectivity γ/α ratio mouse (mouse RAR gamma receptor): 452-fold; Selectivity β/α ratio human (human RAR beta): 289-fold; β/α ratio hu (human RAR beta): 289; Selectivity γ/α ratio human (human RAR gamma): 2322-fold; γ/α ratio hu (human RAR gamma): 2322
"CC(C)(C)Oc1c(Cl)cc(C(=O)Nc2ccc(C(=O)O)cc2)cc1Cl [Compound 16, 4-(4-(tert-Butoxy)-3,5-dichlorobenzamido)benzoic acid]",0.45,426,909,
"CCOc1c(Cl)cc(C(=O)Nc2ccc(C(=O)O)c(C)c2)cc1Cl [Compound 18, 4-(3,5-Dichloro-4-ethoxybenzamido)-2-methylbenzoic acid]",0.51,82,151,
"CCOc1c(OC(C)C)cc(C(=O)Nc2ccc(C(=O)O)cc2)cc1OC(C)C [Compound 31, 4-(4-Ethoxy-3,5-diisopropoxybenzamido)benzoic acid]",0.36,175,2190,
"CC(C)Oc1cc(C(=O)Nc2ccc(C(=O)O)cc2)cc(Cl)c1OC(C)C [Compound 39, 4-(3-chloro-4,5-diisopropoxybenzamido)benzoic acid]",0.43,54,838,
"CCOc1c(Cl)cc(C(=O)Nc2ccc(C(=O)O)cc2)cc1OC(C)C [Compound 49, 4-(3-Chloro-4-ethoxy-5-isopropoxybenzamido)benzoic acid]",0.47,150,"11,721",
COc1c(Cl)cc(C(=O)Nc2ccc(C(=O)O)cc2)cc1OC(C)C [Compound 51],0.44,283,2043,
"CCOc1c(Cl)cc(C(=O)Nc2ccc(C(=O)O)c(C)c2)cc1OC(C)C [Compound 56, 4-(3-Chloro-4-ethoxy-5-isopropoxybenzamido)-2-methylbenzoic acid]",,200,"11,000","Selectivity β/α ratio mouse (mouse RAR beta receptor): 200-fold; Selectivity γ/α ratio mouse (mouse RAR gamma receptor): 11,000-fold; Selectivity β/α ratio human (human RAR beta): 290-fold; Selectivity γ/α ratio human (human RAR gamma): >13,000-fold; γ/α ratio hu (human RAR gamma): > 13,000"
